# This is a selection: effects in other tests are not listed, and their absence says nothing.
# Protein sequences, listed by entry. Tags and fused reporters are not part of them.
# UniProt O60741, whole entry: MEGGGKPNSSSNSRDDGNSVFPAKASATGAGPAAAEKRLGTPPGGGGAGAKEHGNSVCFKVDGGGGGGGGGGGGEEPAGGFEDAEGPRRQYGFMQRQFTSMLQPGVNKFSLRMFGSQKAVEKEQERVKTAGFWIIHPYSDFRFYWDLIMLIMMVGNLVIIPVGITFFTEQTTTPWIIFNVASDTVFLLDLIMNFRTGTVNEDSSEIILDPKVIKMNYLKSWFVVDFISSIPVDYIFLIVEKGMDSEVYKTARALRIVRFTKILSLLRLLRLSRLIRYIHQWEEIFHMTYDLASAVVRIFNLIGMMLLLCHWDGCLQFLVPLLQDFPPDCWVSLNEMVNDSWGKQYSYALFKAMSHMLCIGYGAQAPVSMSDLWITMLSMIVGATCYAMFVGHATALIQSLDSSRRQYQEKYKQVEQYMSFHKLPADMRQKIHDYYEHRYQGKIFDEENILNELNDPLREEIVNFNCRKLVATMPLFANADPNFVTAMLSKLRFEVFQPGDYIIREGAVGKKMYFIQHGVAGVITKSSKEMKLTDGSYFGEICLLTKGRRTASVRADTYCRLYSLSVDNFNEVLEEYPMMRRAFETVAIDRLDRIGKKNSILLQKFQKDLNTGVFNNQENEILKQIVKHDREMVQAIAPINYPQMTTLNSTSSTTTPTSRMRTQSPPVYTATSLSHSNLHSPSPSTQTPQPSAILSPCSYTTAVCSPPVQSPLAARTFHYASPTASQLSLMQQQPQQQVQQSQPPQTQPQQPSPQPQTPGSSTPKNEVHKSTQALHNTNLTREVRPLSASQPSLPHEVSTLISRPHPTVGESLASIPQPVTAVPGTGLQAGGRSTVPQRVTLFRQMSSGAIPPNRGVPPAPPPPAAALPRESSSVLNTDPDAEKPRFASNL
# Biological target: Potassium/sodium hyperpolarization-activated cyclic nucleotide-gated channel 1 (Homo sapiens, UniProt O60741)
# Assay: Inhibition of human HCN1 heterologously expressed in HEK-293 cells after 30 mins by VIPR assay
structure (smiles),measurement,value
COc1ccccc1C(=O)NCC1(N2CCOCC2)CCCCC1,IC50,> 200 µM
